Measurements reported in US9108949B2, “Compounds and methods of prophylaxis and treatment regarding nicotinic receptor antagonists” (dated 2015).

Protein sequences, listed by entry. Tags and fused reporters are not part of them. Residues count along the entry.
UniProt P09483, 31-630 limits assumed: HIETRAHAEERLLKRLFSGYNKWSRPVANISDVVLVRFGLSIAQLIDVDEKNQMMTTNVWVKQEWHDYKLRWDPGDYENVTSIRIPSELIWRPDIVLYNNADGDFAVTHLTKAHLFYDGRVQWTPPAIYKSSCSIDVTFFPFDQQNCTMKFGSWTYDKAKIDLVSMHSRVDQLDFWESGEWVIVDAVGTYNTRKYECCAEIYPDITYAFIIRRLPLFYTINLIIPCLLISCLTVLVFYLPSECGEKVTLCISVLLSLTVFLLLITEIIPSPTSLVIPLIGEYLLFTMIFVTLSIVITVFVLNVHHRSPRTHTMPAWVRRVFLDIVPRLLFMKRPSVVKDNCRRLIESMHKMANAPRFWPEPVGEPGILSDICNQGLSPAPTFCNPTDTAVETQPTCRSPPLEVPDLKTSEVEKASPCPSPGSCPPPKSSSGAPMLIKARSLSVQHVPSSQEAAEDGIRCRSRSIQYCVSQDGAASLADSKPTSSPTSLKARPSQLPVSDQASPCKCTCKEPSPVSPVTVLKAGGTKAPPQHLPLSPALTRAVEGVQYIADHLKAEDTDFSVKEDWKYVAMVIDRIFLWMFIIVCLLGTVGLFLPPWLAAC
UniProt P12390, 25-500 limits assumed: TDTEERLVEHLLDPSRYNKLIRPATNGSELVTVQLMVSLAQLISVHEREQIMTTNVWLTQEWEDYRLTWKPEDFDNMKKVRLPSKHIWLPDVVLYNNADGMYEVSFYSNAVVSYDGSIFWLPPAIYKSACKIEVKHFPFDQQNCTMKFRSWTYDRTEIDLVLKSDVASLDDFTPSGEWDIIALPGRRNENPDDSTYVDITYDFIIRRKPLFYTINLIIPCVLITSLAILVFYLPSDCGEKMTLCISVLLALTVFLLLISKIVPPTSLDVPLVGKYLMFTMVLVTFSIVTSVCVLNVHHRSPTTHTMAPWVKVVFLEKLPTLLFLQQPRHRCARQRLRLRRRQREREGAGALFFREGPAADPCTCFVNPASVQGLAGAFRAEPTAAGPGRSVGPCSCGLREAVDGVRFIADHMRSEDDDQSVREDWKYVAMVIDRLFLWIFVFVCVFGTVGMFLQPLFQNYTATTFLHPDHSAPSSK

Legend:
[1] = Blood brain barrier penetration after cassette dosing in mice; conditions: cassette dosing 10 mg/kg ip, male C57Bl/6 mice
[2] = target: neuronal α4β2 nAChRs (Rattus norvegicus, UniProt P09483+P12390); assay: α4β2 receptor binding on rat cortical membranes with [3H]epibatidine; conditions: at 10 1M
[3] = tested on: seizure induced by the nerve agent diisopropylfluorophosphate (DFP); assay: DFP toxicity animal model, anti-seizure activity

CCCc1c(C(=O)NC2CCN(Cc3ccccc3)CC2)cnn1-c1ccccc1
area under the curve (AUC) ratio of brain to plasma [1]: 3.1 | concentration in brain [1]: 9 µM | binding to the neuronal α4β2 [2]: 1.3% | Normalized % neuroprotection (antagonism of DFP-induced seizure-like behaviors) ([3]; compared with DFP controls, over a 2 h period post-injection): 91.2% | Seizure score (mean ± SD) ([3]; pretreatment before DFP, 2 h period post-injection): 0.8 ± 1.3 | Normalized % seizure ([3]; relative to DFP controls): 8.8%
